Measured values published in patent US9464084B2, “P2X7 modulators” (Janssen Pharmaceutica NV, priority 2013, dated 2016).

Chains of the proteins cited; added tags and fusions are not shown. Lines headed by an entry give the natural chain unless they say otherwise; changes in a name come on top.
UniProt Q64663: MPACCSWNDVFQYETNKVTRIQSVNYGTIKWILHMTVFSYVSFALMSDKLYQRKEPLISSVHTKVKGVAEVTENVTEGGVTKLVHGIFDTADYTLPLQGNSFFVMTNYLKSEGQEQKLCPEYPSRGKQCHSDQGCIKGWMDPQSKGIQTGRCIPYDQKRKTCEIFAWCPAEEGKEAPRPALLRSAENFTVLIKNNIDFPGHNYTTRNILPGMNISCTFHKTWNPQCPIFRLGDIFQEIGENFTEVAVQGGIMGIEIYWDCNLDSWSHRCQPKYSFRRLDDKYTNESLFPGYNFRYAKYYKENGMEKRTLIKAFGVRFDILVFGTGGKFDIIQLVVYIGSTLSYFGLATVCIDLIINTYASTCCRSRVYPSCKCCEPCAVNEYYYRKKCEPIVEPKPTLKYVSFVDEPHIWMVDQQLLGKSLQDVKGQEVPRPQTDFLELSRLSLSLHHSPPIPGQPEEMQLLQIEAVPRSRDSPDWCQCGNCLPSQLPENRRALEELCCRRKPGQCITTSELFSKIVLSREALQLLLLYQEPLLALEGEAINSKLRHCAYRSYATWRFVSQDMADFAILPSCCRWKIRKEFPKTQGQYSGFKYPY
UniProt Q99572: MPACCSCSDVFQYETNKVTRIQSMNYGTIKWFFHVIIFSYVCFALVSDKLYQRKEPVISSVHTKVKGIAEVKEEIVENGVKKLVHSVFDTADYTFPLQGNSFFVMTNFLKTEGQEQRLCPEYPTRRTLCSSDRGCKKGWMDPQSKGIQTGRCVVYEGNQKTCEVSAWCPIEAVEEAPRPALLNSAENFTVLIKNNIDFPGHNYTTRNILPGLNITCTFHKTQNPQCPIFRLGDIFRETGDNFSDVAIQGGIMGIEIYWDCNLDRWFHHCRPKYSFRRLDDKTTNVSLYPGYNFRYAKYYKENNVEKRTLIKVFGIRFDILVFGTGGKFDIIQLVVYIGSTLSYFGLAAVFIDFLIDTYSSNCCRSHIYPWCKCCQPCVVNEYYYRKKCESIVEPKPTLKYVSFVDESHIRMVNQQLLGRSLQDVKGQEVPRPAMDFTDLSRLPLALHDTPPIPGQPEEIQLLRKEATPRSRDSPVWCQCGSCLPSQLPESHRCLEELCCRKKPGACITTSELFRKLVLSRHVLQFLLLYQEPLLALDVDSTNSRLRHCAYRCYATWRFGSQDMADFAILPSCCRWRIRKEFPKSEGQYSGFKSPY

Columns and labels:
rat P2X7 [1] = biological target: T1, rat P2X7 (Rattus norvegicus (Rat), UniProt Q64663); test: Ca2+ flux (FLIPR) in 1321N1 cells expressing recombinant rat P2X7 channel; assay type: cell-based; details: 250 μM BzATP;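 also: Calcium-4 dye fluorescence change read 180 s after agonist addition, following 30 min cell preincubation with test compound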
P2X7 [2] = biological target: T2, P2X7 (Homo sapiens (Human), UniProt Q99572); test: Radioligand binding, tritiated A-804598, human P2X7-1321N1 cell membranes; details: 1 hour at 4° C.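 Also: ki obtained from the binding IC50 after correction for tracer concentration and tracer affinity.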
rat P2X7 [3] = biological target: T1, rat P2X7; test: Radioligand binding, tritiated A-804598, rat P2X7-1321N1 cell membranes; details: 1 hour at 4° C.
P2X7 [4] = biological target: T2, P2X7; test: Ca2+ flux (FLIPR) in 1321N1 cells expressing recombinant human P2X7 channel; assay type: cell-based; details: 250 μM BzATP;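 also: Calcium-4 dye-loaded cells exposed to compound for 30 min before agonist addition, fluorescence change read 180 s after agonist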

IC50 (rat P2X7 [1])	Ki (P2X7 [2])	IC50 (P2X7 [4])	SMILES	Ki (rat P2X7 [3])
11.8 nM	31.6 nM	8.5 nM	C[C@@H]1c2nnn(-c3cc(F)ccn3)c2CCN1C(=O)c1cccc(C(F)(F)F)c1Cl (single isomer, unassigned) [Example 148, (R*)-(2-Chloro-3-(trifluoromethyl)phenyl)(1-(4-fluoropyridin-2-yl)-4-methyl-6,7-dihydro-1H-[1,2,3]triazolo[4,5-c]pyridin-5(4H)-yl)methanone]	–
21.6 nM	50.1 nM	5.7 nM	COc1ccnc(-n2nnc3c2CCN(C(=O)c2cccc(C(F)(F)F)c2Cl)[C@H]3C)c1 (single isomer, unassigned) [Example 151, (R*)-(2-Chloro-3-(trifluoromethyl)phenyl)(1-(4-methoxypyridin-2-yl)-4-methyl-6,7-dihydro-1H-[1,2,3]triazolo[4,5-c]pyridin-5(4H)-yl)methanone]	–
108 nM	4 nM	1 nM	C[C@H]1Cc2c(nnn2-c2ncc(F)cn2)CN1C(=O)c1cccc(Cl)c1Cl (single isomer, unassigned) [Example 205, (6S*)-5-[(2,3-Dichlorophenyl)carbonyl]-1-(5-fluoropyrimidin-2-yl)-6-methyl-4,5,6,7-tetrahydro-1H-[1,2,3]triazolo[4,5-c]pyridine]	–
3.8 nM	20 nM	12.7 nM	COCCn1ccc(-n2nnc3c2CCN(C(=O)c2cccc(C(F)(F)F)c2Cl)[C@H]3C)n1 (single isomer, unassigned) [Example 249, (S*)-(2-Chloro-3-(trifluoromethyl)phenyl)(1-(1-(2-methoxyethyl)-1H-pyrazol-3-yl)-4-methyl-6,7-dihydro-1H-[1,2,3]triazolo[4,5-c]pyridin-5(4H)-yl)methanone]	2.2 nM
1620 nM	21.9 nM	99.1 nM	Cc1cccnc1-n1nnc2c1CCN(C(=O)c1cccc(C(F)(F)F)c1Cl)[C@@H]2C (single isomer, unassigned) [Example 291, (R*)-(2-chloro-3-(trifluoromethyl)phenyl)(4-methyl-1-(3-methylpyridin-2-yl)-6,7-dihydro-1H-[1,2,3]triazolo[4,5-c]pyridin-5(4H)-yl)methanone]	–
> 10000 nM	–	10400 nM	Cc1cccnc1-n1nnc2c1CCN(C(=O)c1cccc(C(F)(F)F)c1Cl)[C@H]2C (single isomer, unassigned) [Example 292, (S*)-(2-chloro-3-(trifluoromethyl)phenyl)(4-methyl-1-(3-methylpyridin-2-yl)-6,7-dihydro-1H-[1,2,3]triazolo[4,5-c]pyridin-5(4H)-yl)methanone]	–
4480 nM	60.3 nM	–	O=C(c1cccc(Cl)c1Cl)N1CCc2c(ncn2-c2ccccc2)C1 [Example 3, (2,3-Dichlorophenyl)(1-phenyl-6,7-dihydro-1H-imidazo[4,5-c]pyridin-5(4H)-yl)methanone]	–
6140 nM	–	1370 nM	O=C(c1cccc(C(F)(F)F)c1Cl)N1CCc2c(ncn2-c2ccccc2)C1CO (stereo not shown) [Example 30, (5-{[2-Chloro-3-(trifluoromethyl)phenyl]carbonyl}-1-phenyl-4,5,6,7-tetrahydro-1H-imidazo[4,5-c]pyridin-4-yl)methanol]	–
1640 nM	75.9 nM	6.2 nM	O=C(c1cccc(Cl)c1Cl)N1CCc2c(-c3ccccc3)n[nH]c2C1 [Example 100, 6-[(2,3-Dichlorophenyl)carbonyl]-3-phenyl-4,5,6,7-tetrahydro-1H-pyrazolo[3,4-c]pyridine]	–
2880 nM	39.8 nM	18.1 nM	CC1c2nnn(-c3ncc(F)cn3)c2CCN1C(=O)c1cccc(C(F)(F)F)c1F (stereo not shown) [Example 175, (2-fluoro-3-(trifluoromethyl)phenyl)(1-(5-fluoropyrimidin-2-yl)-4-methyl-6,7-dihydro-1H-[1,2,3]triazolo[4,5-c]pyridin-5(4H)-yl)methanone]	–
1640 nM	372 nM	106 nM	CCc1nc2c(n1-c1ccccc1)CCN(C(=O)c1cccc(C(F)(F)F)c1Cl)C2C (stereo not shown) [Example 184, (2-Chloro-3-(trifluoromethyl)phenyl)(2-ethyl-4-methyl-1-phenyl-6,7-dihydro-1H-imidazo[4,5-c]pyridin-5(4H)-yl)methanone]	–
113 nM	7.9 nM	10.5 nM	CC1Cc2c(nnn2-c2ncc(F)cn2)CN1C(=O)c1cccc(Cl)c1Cl (stereo not shown) [Example 203, 5-[(2,3-Dichlorophenyl)carbonyl]-1-(5-fluoropyrimidin-2-yl)-6-methyl-4,5,6,7-tetrahydro-1H-[1,2,3]triazolo[4,5-c]pyridine]	–
10100 nM	57.5 nM	40.6 nM	Cc1cccnc1-n1nnc2c1CCN(C(=O)c1cccc(C(F)(F)F)c1Cl)C2C (stereo not shown) [Example 259, (2-Chloro-3-(trifluoromethyl)phenyl)(4-methyl-1-(3-methylpyridin-2-yl)-6,7-dihydro-1H-[1,2,3]triazolo[4,5-c]pyridin-5(4H)-yl)methanone]	–
5650 nM	22.4 nM	113 nM	C[C@H]1Cc2c(nnn2-c2ncc(F)cn2)CN1C(=O)c1cccc(C(F)(F)F)c1 [Example 304, (S)-(1-(5-fluoropyrimidin-2-yl)-6-methyl-6,7-dihydro-1H-[1,2,3]triazolo[4,5-c]pyridin-5(4H)-yl)(3-(trifluoromethyl)phenyl)methanone]	–
2490 nM	15.8 nM	–	O=C(c1cccc(C(F)(F)F)c1Cl)N1CCc2c(ncn2-c2ccc(F)cn2)C1 [Example 315, (2-chloro-3-(trifluoromethyl)phenyl)(1-(5-fluoropyridin-2-yl)-6,7-dihydro-1H-imidazo[4,5-c]pyridin-5(4H)-yl)methanone]	–

SMILES	IC50 (rat P2X7 [1])	Ki (P2X7 [2])	IC50 (P2X7 [4])	Ki (rat P2X7 [3])
C[C@@H]1c2nnn(-c3cnccn3)c2CCN1C(=O)c1cccc(C(F)(F)F)c1Cl (single isomer, unassigned) [Example 74, (4R*)-5-{[2-Chloro-3-(trifluoromethyl)phenyl]carbonyl}-4-methyl-1-pyrazin-2-yl-4,5,6,7-tetrahydro-1H-[1,2,3]triazolo[4,5-c]pyridine]	19200 nM	13200 nM	13400 nM	2240 nM
C[C@H]1c2nnn(-c3cnccn3)c2CCN1C(=O)c1cccc(C(F)(F)F)c1Cl (single isomer, unassigned) [Example 75, (4 S*)-5-{[2-Chloro-3-(trifluoromethyl)phenyl]carbonyl}-4-methyl-1-pyrazin-2-yl-4,5,6,7-tetrahydro-1H-[1,2,3]triazolo[4,5-c]pyridine]	9.1 nM	44.7 nM	3.4 nM	6.2 nM
C[C@@H]1Cc2c(nnn2-c2ncc(F)cn2)CN1C(=O)c1ccc(F)c(Cl)c1Cl (single isomer, unassigned) [Example 214, (6R*)-5-[(2,3-Dichloro-4-fluorophenyl)carbonyl]-1-(5-fluoropyrimidin-2-yl)-6-methyl-4,5,6,7-tetrahydro-1H-[1,2,3]triazolo[4,5-c]pyridine]	46200 nM	–	8490 nM	–
C[C@H]1Cc2c(nnn2-c2ncc(F)cn2)CN1C(=O)c1ccc(F)c(Cl)c1Cl (single isomer, unassigned) [Example 215, (6S*)-5-[(2,3-Dichloro-4-fluorophenyl)carbonyl]-1-(5-fluoropyrimidin-2-yl)-6-methyl-4,5,6,7-tetrahydro-1H-[1,2,3]triazolo[4,5-c]pyridine]	1.9 nM	10 nM	2 nM	–
CC1c2ncn(-c3ccccc3)c2CCN1C(=O)c1cccc(C(F)(F)F)c1Cl (stereo not shown) [Example 12, (2-Chloro-3-(trifluoromethyl)phenyl)(4-methyl-1-phenyl-6,7-dihydro-1H-imidazo[4,5-c]pyridin-5(4H)-yl)methanone]	–	85.1 nM	6.1 nM	135 nM
CC1c2nnn(-c3cnccn3)c2CCN1C(=O)c1cccc(C(F)(F)F)c1Cl (stereo not shown) [Example 73, 5-{[2-Chloro-3-(trifluoromethyl)phenyl]carbonyl}-4-methyl-1-pyrazin-2-yl-4,5,6,7-tetrahydro-1H-[1,2,3]triazolo[4,5-c]pyridine]	40.8 nM	251 nM	14.5 nM	19.1 nM
O=C(c1cccc(C(F)(F)F)c1Cl)N1CCc2c(nnn2-c2cnccn2)C1 [Example 91, 5-{[2-Chloro-3-(trifluoromethyl)phenyl]carbonyl}-1-pyrazin-2-yl-4,5,6,7-tetrahydro-1H-[1,2,3]triazolo[4,5-c]pyridine]	1490 nM	23.4 nM	–	–
